1 compound from PubChem BioAssay AID493249 (Broad Institute, 2011) can be followed below.

Only a part is listed here, and it is no random draw. Active and inactive are the calls of the source.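 The calls were made as follows: active = compounds lowering cell viability with a fitted IC50 within ten times their top tested dose; inconclusive = flat viability loss of 30 to 70 percent, or poor fit; inactive = the rest.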

The nature of this assay: viability of U2OS HRE-luciferase line – cell-based, dry powder, set 7, cytotoxicity control for HIF pathway activator project, dose response (AID 493249). As to conditions: U2OS HRE-luc cells, viability toxicity counter-screen, CellTiter-Glo; at 38 µM (top of the series). The method in brief: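 System: human osteosarcoma U2OS cells stably expressing 3×HRE-luciferase reporter. Medium: phenol red-free DMEM with 10% FBS. Measure: compound toxicity as loss of cell viability. Timing: 24 h cell attachment, then 24 h compound exposure, 37 °C. Dosing: 8-point 3-fold dilution series, 7.5 mM top stock. Signal: CellTiter-Glo luminescence.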
(The purpose of a counterscreen is to sort out artefacts and off-target activity.)

With `O=c1[nH]c2ccccc2n1C1CCN(Cc2ccc(O)c3ncccc23)CC1`, the activity change, negative = toxicity is inactive: -2.85%.
